Assay results from US7220775B2, “Compound useful for the treatment of neuropathic pain” (H. Lundbeck A/S, priority 2002, dated 2007).

By UniProt entry, the sequences of proteins in these tests, tags left out.
UniProt O60755, whole entry: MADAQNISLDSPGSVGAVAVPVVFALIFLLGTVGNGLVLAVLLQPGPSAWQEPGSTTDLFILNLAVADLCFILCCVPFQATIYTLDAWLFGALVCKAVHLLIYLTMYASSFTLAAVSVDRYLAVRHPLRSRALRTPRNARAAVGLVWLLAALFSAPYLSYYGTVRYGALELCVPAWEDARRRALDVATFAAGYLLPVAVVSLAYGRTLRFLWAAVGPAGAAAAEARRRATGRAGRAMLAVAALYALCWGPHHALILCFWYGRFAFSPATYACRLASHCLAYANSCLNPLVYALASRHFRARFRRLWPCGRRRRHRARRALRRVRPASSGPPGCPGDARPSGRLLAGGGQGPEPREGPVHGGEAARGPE

Key:
human GAL3 receptor = human GAL3 receptor (Homo sapiens, UniProt O60755); test: Radioligand binding at cloned human GAL3 receptor; settings: reference
[1] = system: NE transporter (rNE Uptk); test: Binding at native NE transporter; parameters: species or system rat; settings: Table 8

SMILES: COC[C@@H]1[C@@H](c2ccccc2)OCCN1c1nc(Nc2ccc(C)cc2)cc(N2CCCCC2)n1
- selectivity ratio hGAL3 (Ki hGAL3 / Ki hGAL3) (human GAL3 receptor; Table 8): 1
- selectivity ratio hGAL3 (Ki hGAL3 / Ki hGAL3) (human GAL3 receptor; Table 10): 1
- selectivity ratio rNE Uptk (Ki rNE Uptk / Ki hGAL3) [1]: > 100
